From ChEMBL document CHEMBL1777750, “Design strategies to target crystallographic waters applied to the Hsp90 molecular chaperone” (Bioorg Med Chem Lett, 2011) come the findings set out here.

The experiment is described as follows: Binding affinity to HSP90 by isothermal titration calorimetry assay.

As to `COc1cc(-c2cc(C)nc(N)n2)c(Cl)cc1Cl`, the dissociation constant (Kd) was 0.084 µM.
